Reference: patent publication US20210040194A1 (AstraZeneca / MedImmune, published 2021)

Amino acid sequences for entries named in this document (tags omitted). Chains listed by the source or under a name are the forms on record and can include a tag or linker. Residues count along the entry.
UniProt P15692, other isoform, or with tags, fused parts or gaps limits assumed: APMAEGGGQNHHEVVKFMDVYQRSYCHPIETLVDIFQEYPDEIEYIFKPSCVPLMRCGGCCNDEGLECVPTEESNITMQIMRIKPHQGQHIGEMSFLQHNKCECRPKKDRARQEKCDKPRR
UniProt P15692, 207-395 limits assumed: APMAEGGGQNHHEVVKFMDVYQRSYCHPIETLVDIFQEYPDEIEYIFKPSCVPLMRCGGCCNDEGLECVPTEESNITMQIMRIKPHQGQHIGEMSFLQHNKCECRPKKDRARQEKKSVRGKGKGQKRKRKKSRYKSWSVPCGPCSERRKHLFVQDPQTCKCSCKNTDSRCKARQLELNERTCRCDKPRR

B1: B20-4.1 (antibody, V domains shown)
VH: EVQLVESGGGLVQPGGSLRLSCAASGFSINGSWIFWVRQAPGKGLEWVGAIWPFGGYTHYADSVKGRFTISADTSKNTAYLQMNSLRAEDTAVYYCARWGHSTSPWAMDYWGQGTLV
VL: DIQMTQSPSSLSASVGDRVTITCRASQVIRRSLAWYQQKPGKAPKLLIYAASNLASGVPSRFSGSGSGTDFTLTISSLQPEDFATYYCQQSNTSPLTFGQGTKVEIK
B2: G6-31 (antibody, V domains shown)
VH: EVQLVESGGGLVQPGGSLRLSCAASGFTISDYWIHWVRQAPGKGLEWVAGITPAGGYTRYADSVKGRFTISADTSKNTAYLQMRSLRAEDTAVYYCARFVFFLPYAMDYWGQGTLVTVSS
VL: DIQMTQSPSSLSASVGDRVTITCRASQDVSTAVAWYQQKPGKAPKLLIYSASFLYSGVPSRFSGSGSGTDFTLTISSLQPEDAATYYCQQGYGAPFTFGQGTKVEIK

Legend:
VEGF121 = target: T1, VEGF121 (human, UniProt P15692-9 27-147); test: ELISA on plate-coated VEGF121, detection with goat anti-human IgG HRP, OD 450 nm
T1 construct: The method names only 'human VEGF' as coat

human VEGF189 = human VEGF189 (human, UniProt P15692-2 27-215); test: ELISA, coated human VEGF189, anti-human IgG HRP detection

Binder	EC50 (VEGF121)	EC50 (human VEGF189)
B1	0.053 nM	
B2		0.0096 nM
